Where two headings read alike, the source gives them in different places.

This note sets out measurements from patent US4966916A (priority 1989, dated 1990).

Experiment [1] relates to nicotine receptor, rat brain membranes. It counts as binding.
The target in experiment [2] is nicotine receptor, rat brain membranes. Conditions: read-out: 3H-MCC Binding IC50.

Usually IC50 stands for the midpoint of a concentration-inhibition curve. Take `COC(=O)[C@H]1[C@@H](OC(=O)c2ccccc2)C[C@@H]2CC[C@H]1N2C` [cocaine]: the “binding affinity” value in experiment [1] is “inactive”. Also, the IC50 in experiment [1] (read-out: 3H-Nicotine Binding IC50) and in experiment [2] was more than 100 µM throughout.

`CCN(CC)CCOC(=O)c1ccc(N)cc1` [procaine]: the “binding affinity” value in experiment [1] is recorded as “some binding affinity”.
